Here are results for one molecule from patent publication US6989399B2, “Antiamyloid phenylsulfonamides: N-alkanol derivatives” (Bristol-Myers Squibb Company, priority 2002, dated 2006).

SMILES strings stand for the structures. A value given as a limit tells only on which side of the number the result lay.

The experiment concerns the target γ-secretase (Homo sapiens, UniProt P49768). Briefly: Isolated membrane γ-secretase assay, time-resolved fluorescence detection of Aβ. To be noted: read-out: Activity (IC50), Inhibition of β-Amyloid Peptide; isolated membranes, about 90 minutes at 37 degrees C. From the text: The detection of γ-secretase activity requires assays capable of reliable, accurate and expedient detection of γ-secretase cleavage products, particularly Aβ. An isolated membrane fraction that contains functionally active γ-secretase and β-APP substrates can generate γ-secretase cleavage products including Aβ (Roberts et al., WO 01/75435; Fechteler et al., Patent Application No. DE 99-19941039 19990828; Shearman et al., Biochemistry, 39, p. 8698–8704 (2000); Zhang et al., Biochemistry, 40, p. 5049-5055 (2001)). […] 325–327 (1992), or by a preferred method using time-resolved fluorescence of the homogeneous sample containing membranes and Aβ (Roberts et al., WO 01/75435; Shearman et al., Biochemistry, 39, p. 8698–8704 (2000)). The Aβ present in a homogeneous sample containing membranes can be detected by time-resolved fluorescence with two antibodies that recognize different epitopes of Aβ. […] A lack of fluorescence is indicative of the absence of cleavage products, resulting from inhibition of γ-secretase. […]
A typical membrane-based assay requires 45 μg membrane protein per well in a 96- or 384-well format. […] Incubation of the membranes with the test agent will continue for approximately 90 minutes at which time fluorescence labeled antibodies are added to each well for Aβ quantitation. […]

As usually defined, the IC50 is the concentration that gives 50% inhibition. For `C#CCC(O)[C@@H](C)N(c1cc(Cl)ccc1Cl)S(=O)(=O)c1ccc(Cl)cc1` (single isomer, unassigned), the IC50 was less than 50 nM.
